Laboratory results as given in paper PMC8637366 (Slas Discovery, 2021).

Sequences of proteins named here, by UniProt entry; tags and fusion partners are left off. Residues count along the entry.
UniProt P22303, 32-614: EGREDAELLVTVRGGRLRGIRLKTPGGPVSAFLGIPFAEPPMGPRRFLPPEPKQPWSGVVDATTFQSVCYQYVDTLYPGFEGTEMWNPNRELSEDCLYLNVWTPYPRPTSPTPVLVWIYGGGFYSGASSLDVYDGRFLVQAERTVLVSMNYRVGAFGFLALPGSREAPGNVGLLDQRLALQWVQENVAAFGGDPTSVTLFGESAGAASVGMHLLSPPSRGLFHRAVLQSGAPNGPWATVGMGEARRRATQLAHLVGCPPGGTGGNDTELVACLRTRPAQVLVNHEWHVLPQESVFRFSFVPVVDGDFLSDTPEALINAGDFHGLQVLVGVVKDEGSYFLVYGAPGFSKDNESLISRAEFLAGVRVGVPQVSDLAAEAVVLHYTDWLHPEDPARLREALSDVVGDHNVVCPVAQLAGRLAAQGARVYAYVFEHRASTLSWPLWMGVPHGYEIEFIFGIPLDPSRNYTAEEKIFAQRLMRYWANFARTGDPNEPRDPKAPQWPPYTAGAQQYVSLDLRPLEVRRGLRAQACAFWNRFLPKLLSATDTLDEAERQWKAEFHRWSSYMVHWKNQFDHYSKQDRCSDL

Molecular target: recombinant human AChE (Homo sapiens, UniProt P22303)
Format: biochemical
Conditions: read-out: AChE, IC50

## Diethylumbelliferyl phosphate
  IC50: 420 nM
